The numbers were not newly measured in patent US10577395B2 (priority 2014, dated 2020), which cites them from elsewhere.

For this data set, the system named is vancomycin-resistant strain of E. faecium. Particulars: Kahne et al., Chem. Rev. 2005; cited from earlier work.

For `CN[C@H](CC(C)C)C(=O)N[C@H]1C(=O)N[C@@H](CC(N)=O)C(=O)N[C@H]2C(=O)N[C@H]3C(=O)N[C@H](C(=O)N[C@H](C(=O)O)c4cc(O)cc(O)c4-c4cc3ccc4O)[C@H](O)c3ccc(c(Cl)c3)Oc3cc2cc(c3O[C@@H]2O[C@H](CO)[C@@H](O)[C@H](O)[C@H]2O[C@H]2C[C@](C)(N)[C@H](O)[C@H](C)O2)Oc2ccc(cc2Cl)[C@H]1O` [Compound 1, vancomycin, reference compound], the “MIC, vancomycin-resistant strain of E. faecium” value was 2048 µg/mL.
